Consider 1 molecule from paper PMC5363837 (Circulation, 2017).

Test [1] addresses T1, human apelin receptor expressed in CHO-K1 cells (human, UniProt P35414 1-380).
T1 construct: human apelin receptor (APJ) expressed in CHO-K1 cells; the Data Supplement Methods may tell; Used here also as the target of the cell-based assays, whose cells the text calls only 'cells expressing the apelin receptor'; also called APJ; source: Chinese hamster ovary (CHO)-K1 cells expressing the human apelin receptor
T1 sequence (looked up): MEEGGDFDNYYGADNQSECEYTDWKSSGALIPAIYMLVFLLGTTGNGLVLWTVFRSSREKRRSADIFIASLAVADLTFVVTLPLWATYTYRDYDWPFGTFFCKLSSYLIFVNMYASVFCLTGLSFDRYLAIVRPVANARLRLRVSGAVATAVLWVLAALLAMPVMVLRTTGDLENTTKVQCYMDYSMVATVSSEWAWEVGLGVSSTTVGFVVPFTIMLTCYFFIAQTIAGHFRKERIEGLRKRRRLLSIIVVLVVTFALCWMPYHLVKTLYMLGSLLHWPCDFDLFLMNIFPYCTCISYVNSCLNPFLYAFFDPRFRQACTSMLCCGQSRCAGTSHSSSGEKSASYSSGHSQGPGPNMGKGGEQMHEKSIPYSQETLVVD
The test can be described thus: radioligand binding; competition binding in CHO-K1 cells expressing the human apelin receptor. To be noted: one partner purified.

In test [2] the target is T1, human apelin receptor expressed in …. Put plainly: cell-based or functional assay.

B1: ELA-14 (peptide)
chain: QRRCMPLHSRVPFP
modifications: limits not given; taken as the C-terminal 14 residues, ELA(19-32); N-terminal Gln may be pyroglutamate
In the case of B1, the pKi – broadly, the negative decadic logarithm of the Ki, by convention in mol/L – in test [1] came to 9.35. In test [2], the “cAMP assay, pD2 (-log10 EC50)” value came to 10.1 and the “β-arrestin recruitment assay, pD2 (-log10 EC50)” value worked out at 9.08.
